# Where a name gives a salt, the structure may show the parent alone.
# The chains behind the UniProt entries cited, without tags or fusion partners. Residues count along the entry.
# UniProt P14740, 37-767 limits assumed: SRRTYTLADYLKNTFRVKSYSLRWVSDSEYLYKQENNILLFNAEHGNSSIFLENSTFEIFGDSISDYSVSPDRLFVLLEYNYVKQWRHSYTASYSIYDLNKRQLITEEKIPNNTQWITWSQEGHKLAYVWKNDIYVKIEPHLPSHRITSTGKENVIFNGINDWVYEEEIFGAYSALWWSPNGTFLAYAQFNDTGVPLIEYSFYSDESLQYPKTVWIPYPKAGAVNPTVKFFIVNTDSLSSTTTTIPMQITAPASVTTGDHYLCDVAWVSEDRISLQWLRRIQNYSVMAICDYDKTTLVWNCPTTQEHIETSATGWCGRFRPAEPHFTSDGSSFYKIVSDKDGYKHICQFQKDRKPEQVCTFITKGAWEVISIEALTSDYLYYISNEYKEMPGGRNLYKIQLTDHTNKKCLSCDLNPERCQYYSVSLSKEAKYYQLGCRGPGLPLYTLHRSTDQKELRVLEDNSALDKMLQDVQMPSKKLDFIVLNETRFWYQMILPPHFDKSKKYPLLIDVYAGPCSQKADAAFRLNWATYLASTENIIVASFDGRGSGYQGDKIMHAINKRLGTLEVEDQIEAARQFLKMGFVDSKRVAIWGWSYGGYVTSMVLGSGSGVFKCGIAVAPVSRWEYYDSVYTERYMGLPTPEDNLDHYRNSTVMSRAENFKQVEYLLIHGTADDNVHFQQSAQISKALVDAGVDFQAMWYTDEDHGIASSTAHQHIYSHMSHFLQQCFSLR
# Target: T1, rat plasma DPP-IV (Rattus norvegicus, UniProt P14740)
# T1 construct: DPP-IV activity in human and rat plasma; from tissue; host or cells: rat plasma
# Assay: rat plasma DPP-IV inhibition assay
# Assay type: biochemical
row,Structure (SMILES),IC50 [nM]
1,"N#C[C@@H]1CCCN1C(=O)CNC1CCC1 [Ex. 38, Pyrrolidine, 1-(cyclobutylamino)acetyl-2-cyano-, (S)-monohydrochloride]",23
2,"N#C[C@@H]1CCCN1C(=O)CNCCc1ccccc1 [Ex. 54, Pyrrolidine, 1-[(2-phenylethyl)amino]acetyl-2-cyano-, (S)--, monohydrochloride]",60
3,"N#C[C@@H]1CCCN1C(=O)CNCCNc1ccc([N+](=O)[O-])cn1 [Ex. 8, 1-[2-[(5-nitropyridin-2-yl)amino]ethylamino]acetyl-2-cyano-(S)pyrrolidine]",11
4,"N#C[C@@H]1CCCN1C(=O)CNC1CCCCCC1 [Ex. 24, Pyrrolidine, 1-(acycloheptylamino)acetyl-2-cyano-, (S)--, monohydrochloride]",19
5,"N#C[C@@H]1CCCN1C(=O)CNC1CCCCCCC1 [Ex. 58, Pyrrolidine, 1-(cyclooctylamino)acetyl-2-cyano-, (S)--, monohydrochloride]",100
6,"N#Cc1ccc(NCCCNCC(=O)N2CCC[C@H]2C#N)nc1 [Ex. 63, Pyrrolidine, 1-[[3-[(5-cyano-2-pyridinyl)amino]propyl]amino]acetyl-2-cyano-, (S)--, dihydrochloride]",30
7,"N#C[C@@H]1CCCN1C(=O)CNC1CCCCC1 [Ex. 28, Pyrrolidine, 1-(cyclohexylamino)acetyl-2-cyano-, (S)--, monohydrochloride]",60
8,"N#C[C@@H]1CCCN1C(=O)CNC1CC1 [Ex. 43, Pyrrolidine, 1-(cyclopropylamino)acetyl-2-cyano-, (S)--, monohydrochloride]",120
9,"N#C[C@@H]1CCCN1C(=O)CNCc1cccc2ccccc12 [Ex. 20, Pyrrolidine, 1-[[(1-naphthalenyl)methyl]amino]acetyl-2-cyano-, (S)--, monohydrochloride]",150
10,N#C[C@@H]1CCCN1C(=O)CNCCNc1ccccn1,32
11,"N#C[C@@H]1CCCN1C(=O)CNC1(CO)CCCC1 [Ex. 5, 1-[(1-hydroxymethylcyclopent-1-yl)amino]acetyl-2-cyano-(S)-pyrrolidine]",18
12,"N#C[C@@H]1CCCN1C(=O)CNCc1ccccc1 [Ex. 51, Pyrrolidine, 1-[(phenylmethyl)amino]acetyl-2-cyano-,(S)--, monohydrochloride]",150
13,N#C[C@@H]1CCCN1C(=O)CNC1(CO)CCCCC1,40
14,"C[C@@H]1[C@H]2C[C@@H](C[C@H]1NCC(=O)N1CCC[C@H]1C#N)C2(C)C (relative stereo) [Ex. 33, Pyrrolidine, 1-[(2,6,6-trimethylbicyclo[3.1.1]hept-3-yl)amino]acetyl-2-cyano-, (S)[1S[1α,2β,3α(S*),5α]]-monohydrochloride]",10
15,"N#C[C@@H]1CCCN1C(=O)CNCCOc1ccccc1 [Ex. 45, Pyrrolidine, 1-[[(2-phenoxy)ethyl]amino]acetyl-2-cyano-, (S)--, monohydrochloride]",390
16,"N#C[C@@H]1CCCN1C(=O)CNC1C2CC3CC(C2)CC1C3 (stereo partly drawn) [Ex. 49, Pyrrolidine, 1-[(2-adamantyl)amino]acetyl-2-cyano-, (S)--, monohydrochloride]",3
17,"C[C@@H]1[C@@H](NCC(=O)N2CCC[C@H]2C#N)C[C@H]2C[C@@H]1C2(C)C (relative stereo) [Ex. 44, Pyrrolidine, 1-[(2,6,6-trimethylbicyclo[3.1.1]hept-3-yl)amino]acetyl-2-cyano-, [1S[1α,2α,3β(S*),5α]]-monohydrochloride]",10
18,"N#C[C@@H]1CCCN1C(=O)CNCCCc1ccccc1 [Ex. 21, Pyrrolidine, 1-[(3-phenylpropyl)amino]acetyl-2-cyano-, (S)--, monohydrochloride]",110
